Entries after “also recorded” stand apart in the source; their conditions may differ.
Test system: high-grade serous carcinoma (HGSC) 3D cultures
Assay: Organoid formation in HGSC 3D cultures in medium -/+ BMP2
Type: cell-based, human
Settings: soluble BMP2 final concentration 10 ng/ml in growth medium; organoid counts per field view, 3 patient isolates
Description: The plot is representative of formed organoid counts per field view from 3 different patient isolates which were cultivated in parallel in medium−/+BMP2.
• Adv. +++: Advanced F12 Medium+HEPES (6 ml)+Glutamax (5 ml)+5% fetal calf serum (FCS) • Adv. ++: Advanced F12 Medium+HEPES (6 ml)+Glutamax (5 ml) • Cut tissue with a scissor in small pieces and then mince further with scalpel for 3-5 minutes • Collect all fragments, incubate with 2 ml Collagenase Type 1+2 ml Collagenase type II and transfer to a 6 well plate, • Incubate fragments for 45 min at 37° C. 5% CO2, • Add 5 ml Adv +++ and transfer in to a 50 ml Falcon tube, • Vortex vigorously for 30 seconds, • Let pieces settle down, take supernatant and transfer in to a fresh tube, • Add again 5 ml Adv +++, mix with a pipette, • Let pieces settle down, take supernatant and transfer in to a fresh tube, • Centrifuge for 5 min at 400 rpm, • Discard supernatant, • Prepare 10 ml Adv +++, add 30 μl Y-27632 and 10 μl hEGF (final conc. 10 ng/ml), • Resuspend cell pellet in medium, • Seed cell in a flask, • Incubate at 5% CO2 at 37° C. and grow cells 3-5 days prior to transfer to 3D culture. […]

B1: BMP2: bone morphogenetic protein, e.g. human BMP2 (RefSeq NP_001191), added exogenously to the medium (protein, UniProt P12643 283-396, looked up)
Bone morphogenetic protein 2: QAKHKQRKRLKSSCKRHPLYVDFSDVGWNDWIVAPPGYHAFYCHGECPFPLADHLNSTNHAIVQTLVNSVNSKIPKACCVPTELSAISMLYLDENEKVVLKNYQDMVVEGCGCR
organoid formation efficiency / organoid growth: improves organoid growth; also recorded: clearly improved
